In data set [1] the test system is normal cells (mouse embryo NIH 3T3, Canis familiaris kidney MDCK.2, and monkey kidney COS-7). The data set is described as follows: Background signals from normal cells with mAb-dye conjugates. The following applies: 10 μg/mL, 12 hours, after washing. It counts as cell-based. Here is the method: The background signals from normal cells were also checked. Different normal cells (mouse embryo NIH 3T3, Canis familiaris kidney MDCK.2, and monkey kidney COS-7) with different levels of EGFR expression were incubated by mAb-dye conjugates for 12 hours (FIG. 35), and the images were taken after washing. […] The difference may be attributed to the “turn-on” property of the mAb-AIEgen conjugates controlled by antibody degradation.

The nature of data set [2]: Parameters and concentration-dependent emission of mAb-dye conjugates. The class given is physicochemical.
The next data set has as its system HEK-293 cells. The data set is described as follows: Wash-free cell imaging with mAb-dye conjugates. It counts as cell-based, human. The note with it: HEK-293, 12 hours, 10 μg/mL. The text has this: Exposure time is 1 second for all pictures. Scale bars are 30 μm.
The fluorescence of CSPP needed to be activated by high viscosity or a strong electrostatic interaction due to RIM. As such, it has potential to be used for wash-free cell imaging. HCC827 cells (human non-small lung cancer cells with EGFR overexpression) and HEK-293 cells (EGFR-negative human embryonic kidney cells) were used for cell imaging.

For the substance “mAb-Cy3: commercial dye conjugated antibody (cetuximab labeled with Cy3) [reference compound]”, the “fluorescence in normal cells” value in data set [1] is “some fluorescent signals”. Further, in data set [2], the “ε (molar absorptivity)” value came to 162000 L/mol/cm, the λabs is recorded as 550 nm and the λem stood at 567 nm. Further, the “fluorescence at high conjugate concentration” value in data set [2] (in PBS, versus probe concentration) is given as “became weaker at a high concentration”. The “fluorescence and background without washing” value with HEK-293 cells is on record as “background was too strong”.

The record behind these values is patent publication US11578265B2, “AIEgens for cancer cell imaging” (THE HONG KONG UNIVERSITY OF SCIENCE AND TECHNOLOGY, priority 2016, dated 2023).
